# PubChem BioAssay AID485314 (National Center for Advancing Translational Sciences (NCATS), 2010)
# The entries are a selection whose mix differs from that of the whole data set. Records with an inconclusive call do not appear. Calls of active or inactive are those of the source. The call rests on the fitted dose curve; in most records, active means well fitted inhibition curve with a large enough effect; inconclusive means small, poorly fitted or top-dose-only effect, or another doubt; inactive means no such curve, though single readings can be large or run the other way.
# Target: DNA polymerase beta (Homo sapiens) (UniProt P06746)
# Assay: qHTS Assay for Inhibitors of DNA Polymerase Beta
# Conditions: Pol beta primer extension/strand displacement, fluorescence kinetic
# From the text: The base excision repair system in human cells is a target for therapeutic modulation of the response to irradiation treatment and DNA-damaging drugs. A key enzyme in this system is the bi-functional DNA polymerase known as DNA polymerase Beta (Pol Beta). The following is a homogeneous kinetic assay to study the primer extension and strand-displacement reaction catalyzed by pol beta.
# A stepwise description of the 1536-well assay is shown in next Table. Three microliters of reagents (buffer in column 3 and 4 as negative control and 10 nM Pol beta in columns 1, 2, and 5-48) was dispensed into 1,536-well black solid-bottomed plate. Compounds (23 nL) were transferred via Kalypsys pin tool equipped with 1536-pin array (10 nL slotted pins, V&P Scientific, San Diego, CA). The plates were incubated for 15 min at room temperature, and 1 uL substrate (50 nM final concentration) were added to start the reaction and immediately read at 0 min read on Viewlux reader. The plate were further incubated for 10 min at room temperature, and then read on Viewlux again. Throughout the screen, reagent bottle and all liquid lines were chilled and made light-tight to minimize reagent degradation. All screening operations were performed on a fully integrated robotic system (Kalypsys, San Diego, CA) containing one RX-130 and two RX-90 anthropomorphic robotic arms (Staubli, Duncan, SC). […]
# Potency means the concentration at half of the fitted maximal effect.
row,SMILES,Potency
1,N=C(N)c1ccc(OCCCCCOc2ccc(C(=N)N)cc2)cc1 (tested in a mixture with another compound),active: 4.47 µM
2,N=C(N)c1ccc(OCCCCCOc2ccc(C(=N)N)cc2)cc1,active: 1.12 µM
